Data taken from ChEMBL document CHEMBL1158171, “Bioactivities of a series of phosphodiesterase type 5 (PDE-5) inhibitors as modelled by MIA-QSAR” (Eur J Med Chem, 2008).

Biological target: cGMP-specific 3',5'-cyclic phosphodiesterase (Homo sapiens, UniProt O76074)

For `CCN1C(=O)C2C(N=C(N=[N+]=[N-])N2Cc2ccc(O)cc2)N2C1=N[C@@H]1CCC[C@@H]12` (stereo partly specified), the pIC50 was 9.21.
